Data from paper PMC11949107, “Polyunsaturated fatty acids and their endocannabinoid-related metabolites activity at human TRPV1 and TRPA1 ion channels expressed in HEK-293 cells” (PeerJ, 2025).
Values joined by “and” are separate entries in the source; they are usually repeats but may differ in a detail not shown here. Equal values may be shown once.

By UniProt entry, the sequences of proteins in these tests, tags left out.
UniProt Q8NER1, whole entry: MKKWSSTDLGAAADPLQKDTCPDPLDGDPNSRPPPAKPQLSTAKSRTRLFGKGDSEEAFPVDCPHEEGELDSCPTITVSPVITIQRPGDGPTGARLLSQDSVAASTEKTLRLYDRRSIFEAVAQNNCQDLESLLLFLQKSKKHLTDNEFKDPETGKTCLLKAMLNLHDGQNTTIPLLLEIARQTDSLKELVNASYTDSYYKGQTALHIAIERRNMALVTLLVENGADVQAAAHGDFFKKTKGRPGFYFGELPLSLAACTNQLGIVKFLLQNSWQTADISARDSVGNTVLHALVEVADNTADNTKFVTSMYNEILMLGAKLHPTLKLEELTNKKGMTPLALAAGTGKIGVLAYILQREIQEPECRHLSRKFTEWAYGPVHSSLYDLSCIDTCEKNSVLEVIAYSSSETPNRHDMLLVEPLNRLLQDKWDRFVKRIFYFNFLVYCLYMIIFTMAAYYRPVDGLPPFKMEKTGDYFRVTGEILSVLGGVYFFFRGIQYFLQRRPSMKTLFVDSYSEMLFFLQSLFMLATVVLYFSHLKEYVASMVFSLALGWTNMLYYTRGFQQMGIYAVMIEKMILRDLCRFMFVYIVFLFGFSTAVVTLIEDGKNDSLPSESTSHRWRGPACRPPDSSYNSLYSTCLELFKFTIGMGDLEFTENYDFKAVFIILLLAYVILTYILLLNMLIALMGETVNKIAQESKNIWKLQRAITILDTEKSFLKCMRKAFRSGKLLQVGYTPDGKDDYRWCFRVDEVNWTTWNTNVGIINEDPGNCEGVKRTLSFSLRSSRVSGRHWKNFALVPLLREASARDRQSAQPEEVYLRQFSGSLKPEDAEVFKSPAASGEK
UniProt O75762, whole entry: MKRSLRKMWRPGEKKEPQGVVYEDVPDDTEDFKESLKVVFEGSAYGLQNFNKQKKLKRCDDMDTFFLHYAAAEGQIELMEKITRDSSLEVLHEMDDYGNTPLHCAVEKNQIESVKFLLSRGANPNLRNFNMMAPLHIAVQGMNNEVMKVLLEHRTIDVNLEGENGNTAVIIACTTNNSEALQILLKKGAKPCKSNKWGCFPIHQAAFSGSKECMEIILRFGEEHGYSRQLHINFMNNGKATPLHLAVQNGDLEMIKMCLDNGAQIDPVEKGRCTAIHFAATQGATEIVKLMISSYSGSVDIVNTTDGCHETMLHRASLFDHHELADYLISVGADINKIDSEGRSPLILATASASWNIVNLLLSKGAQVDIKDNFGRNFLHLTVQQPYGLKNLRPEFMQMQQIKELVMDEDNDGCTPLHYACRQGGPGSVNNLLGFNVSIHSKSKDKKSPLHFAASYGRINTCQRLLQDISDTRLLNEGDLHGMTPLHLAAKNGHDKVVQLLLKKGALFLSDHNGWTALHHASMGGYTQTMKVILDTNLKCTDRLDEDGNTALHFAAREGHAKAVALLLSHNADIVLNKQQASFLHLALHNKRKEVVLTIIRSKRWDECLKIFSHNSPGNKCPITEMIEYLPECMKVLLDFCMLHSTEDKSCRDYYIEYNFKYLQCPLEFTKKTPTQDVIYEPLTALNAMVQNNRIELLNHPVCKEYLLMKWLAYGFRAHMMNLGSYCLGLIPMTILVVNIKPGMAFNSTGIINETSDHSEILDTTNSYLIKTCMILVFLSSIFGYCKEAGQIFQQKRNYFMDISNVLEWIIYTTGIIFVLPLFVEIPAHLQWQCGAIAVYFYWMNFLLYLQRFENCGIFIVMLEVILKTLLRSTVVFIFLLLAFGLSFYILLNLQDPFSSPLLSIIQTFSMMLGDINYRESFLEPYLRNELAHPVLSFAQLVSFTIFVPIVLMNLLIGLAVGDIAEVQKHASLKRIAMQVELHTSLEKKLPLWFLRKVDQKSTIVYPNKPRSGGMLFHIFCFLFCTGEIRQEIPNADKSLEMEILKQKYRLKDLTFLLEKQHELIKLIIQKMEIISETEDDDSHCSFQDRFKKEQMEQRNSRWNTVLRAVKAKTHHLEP

Assays:
Assay type in all cases: cell-based
human TRPV1 [1] = biological target: T1, human TRPV1 (Homo sapiens, UniProt Q8NER1); test: Calcium 5 dye [Ca]i assay in HEK-293 Flp-In T-REx cells expressing TRPV1 (agonist response)
T1 construct: Life Technologies (cells); host or cells: Flp-In T-REx HEK-293
Procedure: (§1) The cells were incubated in a 5% CO2 humidified atmosphere at 37 °C. Upon reaching approximately 90% confluence in 75 cm^2 flasks, they were trypsinized and transferred to poly-D-lysine coated 96-well plates (Corning, Castle Hill, NSW, Australia) in L-15 medium supplemented with 1% FBS, 100 U penicillin and 100 µg streptomycin ml^−1 (1% P/S), and 15 mM glucose (80 µL volume per well). After an overnight incubation (maximum of 16 h) in humidified room air at 37 °C, TRPV1 and TRPA1 receptor expression was induced 4 h before experimentation by adding to each well 10 µL tetracycline solution to a final concentration of 1 µg ml^−1.
(§2) Intracellular calcium [Ca]i levels were assessed using the calcium 5 kit from Molecular Devices (# R8186, Sunnyvale, CA, USA) on a FlexStation 3 Microplate Reader (Molecular Devices, Sunnyvale, CA, USA). […] 90 µL of the dye were loaded into each well of the plate and incubated for 1 h before reading in the FlexStation 3 at 37 °C. Fluorescence was recorded every 2 s (λ excitation = 485 nm, λ emission = 525 nm) for 5 min. […]
(§3) The response to agonists was expressed as a percentage change from the average baseline measurement taken for 60s before adding drug. Changes in fluorescence resulting from the addition of solvent were subtracted before normalization to baseline. […] Potencies were expressed as pEC50, which is the negative log of EC50 in moles per litre (Molar). […]

human TRPA1 = biological target: T2, human TRPA1 (Homo sapiens, UniProt O75762); test: Calcium 5 dye [Ca]i assay in HEK-293 Flp-In T-REx cells expressing TRPA1 (agonist response); details: concentration -5.52288 (log); sheet Figure 4; listed as GLA
T2 construct: Life Technologies (cells); host or cells: Flp-In T-REx HEK-293
Procedure: as §1, §2, §3

human TRPV1 [2] = biological target: T1, human TRPV1; test: PMA (phorbol ester) potentiation of TRPV1 responses in HEK-293 TRPV1 cells; parameters: key to Drugs alone, individual experiments: change in [Ca]i as % of pre-drug baseline
Procedure: Intracellular calcium [Ca]i levels were assessed using the calcium 5 kit from Molecular Devices (# R8186, Sunnyvale, CA, USA) on a FlexStation 3 Microplate Reader (Molecular Devices, Sunnyvale, CA, USA). […] Probenecid (cat # 50027; Biotium) which helps to prevent expulsion of calcium indicator from the cells was added to a final concentration of 1.25 mM. 90 µL of the dye were loaded into each well of the plate and incubated for 1 h before reading in the FlexStation 3 at 37 °C. Fluorescence was recorded every 2 s (λ excitation = 485 nm, λ emission = 525 nm) for 5 min. After 1 min of baseline recording, 20 µL of the drug, dissolved in HBSS with 1% dimethyl sulfoxide (DMSO) (cat # D2650; Sigma-Aldrich, Melbourne, Australia) was added (final DMSO concentration was 0.1% in well).
We initially determined the effect of PMA, another phorbol ester that is a protein kinase C activator ([Jiang & Fleet, 2012]) on HEK-293 TRPV1 expressing cells.
(A) Response of HEK-293 TRPV1 expressing cells for PMA at various concentration. […] Drugs were added for the duration of the bar; (D) The effects of PUFAs after potentiation of TRPV1 by PMA. […] Changes in [Ca]i are expressed as percentage of the pre-drug baseline, with the response to PMA alone at 5 min subtracted. The black circles represent the response of PUFAs without PMA pretreatment while the pink circles represent the response of PUFAs after PMA potentiation.

SMILES: CCCCC/C=C\C/C=C\C/C=C\CCCCC(=O)O [γ-LA, γ-linolenic acid]
- Emax at 30 µM (human TRPV1 [1]; HEK293, read-out: Emax ± SEM % TRPV1 (30 µM)): 40 ± 11%
- Change in Ca5 fluorescence, individual experiments (CRC raw data) (human TRPV1 [1]; log concentration -7 (M), TRPV1 cells, listed as GLA): 4.439
- [Ca]i response (change in fluorescence), individual replicates (human TRPA1): 3.248
- TRPV1 response after exposure to PMA (human TRPV1 [2]; PMA 100 nM, 5 min pretreatment): amplified
- Drugs post-PMA, individual experiments (human TRPV1 [2]; PUFA 10 µM after PMA 100 nM for 5 min, response to PMA alone subtracted, listed as GLA): 44.7315 and 35.0016 and 34.9278 and 29.5327 and 32.5444 and 42.846 and 29.0963 and 22.7975
- Drugs alone, individual experiments (human TRPV1 [2]; PUFA 10 µM without PMA pretreatment, TRPV1 cells, listed as GLA): 9.631 and 12.2352 and 8.421 and 4.046 and 4.255 and 2.8335 and 8.258 and 18.6815 and 44.3804
